Literature values as cited in PMC12154458, “High-Throughput Screens of Repurposing Hub and DOS Chemical Libraries Reveal Compounds with Novel and Potent Inhibitory Activity Against the Essential Non-Neuronal Acetylcholinesterase of Schistosoma mansoni (SmTAChE)” (International Journal of Molecular Sciences, 2025).

The chains behind the UniProt entries cited, without tags or fusion partners. Residues count along the entry.
UniProt P22303, 32-614 limits assumed: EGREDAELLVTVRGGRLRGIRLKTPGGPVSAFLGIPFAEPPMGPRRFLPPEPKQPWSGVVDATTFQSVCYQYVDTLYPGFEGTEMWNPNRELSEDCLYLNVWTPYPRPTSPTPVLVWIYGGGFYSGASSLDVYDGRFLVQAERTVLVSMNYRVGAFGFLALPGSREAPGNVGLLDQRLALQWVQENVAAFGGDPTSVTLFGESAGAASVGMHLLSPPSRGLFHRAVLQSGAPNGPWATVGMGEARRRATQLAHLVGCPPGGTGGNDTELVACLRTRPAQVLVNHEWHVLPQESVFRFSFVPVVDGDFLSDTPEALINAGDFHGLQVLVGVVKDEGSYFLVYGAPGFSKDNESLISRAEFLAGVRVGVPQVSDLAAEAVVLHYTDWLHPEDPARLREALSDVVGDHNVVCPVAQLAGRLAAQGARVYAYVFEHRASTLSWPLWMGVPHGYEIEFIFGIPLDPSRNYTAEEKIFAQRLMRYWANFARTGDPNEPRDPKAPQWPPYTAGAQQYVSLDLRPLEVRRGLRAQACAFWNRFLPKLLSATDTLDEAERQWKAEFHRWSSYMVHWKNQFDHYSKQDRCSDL

Target: recombinant human acetylcholinesterase, rHsAChE (Homo sapiens, UniProt P22303)
Conditions: read-out: IC50 human AChE; preliminary screening of Broad Institute Validation Library; cited from earlier work

For `COc1cc(CNCCc2ccccc2F)ccc1OCC(=O)N1CCCCC1`, the IC50 is given as 151 µM.
